Assay results as given in patent US12295939B2, “Substituted benzothiophene analogs as selective estrogen receptor degraders” (The Board of Trustees of the University of Illinois, priority 2018, dated 2025).

Protein sequences, listed by entry. Tags and fused reporters are not part of them.
UniProt P03372, whole entry: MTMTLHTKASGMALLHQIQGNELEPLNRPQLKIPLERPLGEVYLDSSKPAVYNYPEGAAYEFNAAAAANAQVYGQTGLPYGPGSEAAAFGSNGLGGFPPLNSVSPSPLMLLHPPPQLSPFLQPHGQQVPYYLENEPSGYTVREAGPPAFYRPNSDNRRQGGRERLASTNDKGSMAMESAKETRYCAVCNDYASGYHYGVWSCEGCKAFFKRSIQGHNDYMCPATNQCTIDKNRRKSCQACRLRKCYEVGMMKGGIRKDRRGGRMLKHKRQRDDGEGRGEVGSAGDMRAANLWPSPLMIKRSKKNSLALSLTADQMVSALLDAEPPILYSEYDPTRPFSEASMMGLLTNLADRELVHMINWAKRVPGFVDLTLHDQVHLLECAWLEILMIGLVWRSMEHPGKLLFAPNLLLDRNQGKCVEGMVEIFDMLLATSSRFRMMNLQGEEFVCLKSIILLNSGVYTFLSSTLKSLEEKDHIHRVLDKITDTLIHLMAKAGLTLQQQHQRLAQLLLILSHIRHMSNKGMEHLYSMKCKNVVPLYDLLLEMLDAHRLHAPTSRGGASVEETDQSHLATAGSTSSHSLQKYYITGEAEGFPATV

target: T1, ER (Homo sapiens, UniProt P03372); experiment: Relative binding affinity (RBA)
T1 construct: endogenous in cells
Description: Example compounds were assayed to determine ER downregulation, relative binding affinity, and ER antagonism.

Compound	RBA (%)
O=C(c1ccc(O)cc1)c1sc2cc(O)ccc2c1Oc1ccc(OCCN2CC(CF)C2)cc1 [Compound 1, (3-(4-(2-(3-(fluoromethyl)azetidin-1-yl)ethoxy)phenoxy)-6-hydroxybenzo[b]thiophen-2-yl)(4-hydroxyphenyl) methanone]	57.0 ± 14%
Cc1cc(O)ccc1C(=O)c1sc2cc(O)ccc2c1Oc1ccc(OCCN2CC(CF)C2)cc1 [Compound 2, (3-(4-(2-(3-(fluoromethyl)azetidin-1-yl)ethoxy)phenoxy)-6-hydroxybenzo[b]thiophen-2-yl)(4-hydroxy-2-methylphenyl) methanone]	21.9 ± 3%
Cc1cc(F)cc(C)c1C(=O)c1sc2cc(O)ccc2c1Oc1ccc(OCCN2CC(CF)C2)cc1 [Compound 5, (4-fluoro-2,6-dimethylphenyl)(3-(4-(2-(3-(fluoromethyl)azetidin-1-yl)ethoxy)phenoxy)-6-hydroxybenzo[b]thiophen-2-yl)methanone]	59.6 ± 3%
Cc1cc(F)cc(C)c1C(=O)c1sc2cc(O)ccc2c1Oc1ccc(OCCN2CC[C@@H](CF)C2)cc1 [Compound 35, (R)-(4-fluoro-2,6-dimethylphenyl)(3-(4-(2-(3-(fluoromethyl)pyrrolidin-1-yl)ethoxy)phenoxy)-6-hydroxybenzo[b]thiophen-2-yl)methanone]	32.6 ± 6%
C[C@]12CC[C@@H]3c4ccc(O)cc4C[C@@H](CCCCCCCCC[S+]([O-])CCCC(F)(F)C(F)(F)F)[C@H]3[C@@H]1CC[C@@H]2O (some centres unmarked) [Fulvestrant, fulvestrant, reference compound]	17.7%
